Among the data in ChEMBL document CHEMBL5537216, “Design, synthesis, molecular docking and anti-proliferative activity of novel phenothiazine containing imidazo[1,2-a]pyridine derivatives against MARK4 protein” (RSC Med Chem, 2024) are K values, retold here.

The target in the assay is T1, MAP/microtubule affinity-regulating kinase 4 (Homo sapiens) (UniProt Q96L34).
T1 sequence (whole entry): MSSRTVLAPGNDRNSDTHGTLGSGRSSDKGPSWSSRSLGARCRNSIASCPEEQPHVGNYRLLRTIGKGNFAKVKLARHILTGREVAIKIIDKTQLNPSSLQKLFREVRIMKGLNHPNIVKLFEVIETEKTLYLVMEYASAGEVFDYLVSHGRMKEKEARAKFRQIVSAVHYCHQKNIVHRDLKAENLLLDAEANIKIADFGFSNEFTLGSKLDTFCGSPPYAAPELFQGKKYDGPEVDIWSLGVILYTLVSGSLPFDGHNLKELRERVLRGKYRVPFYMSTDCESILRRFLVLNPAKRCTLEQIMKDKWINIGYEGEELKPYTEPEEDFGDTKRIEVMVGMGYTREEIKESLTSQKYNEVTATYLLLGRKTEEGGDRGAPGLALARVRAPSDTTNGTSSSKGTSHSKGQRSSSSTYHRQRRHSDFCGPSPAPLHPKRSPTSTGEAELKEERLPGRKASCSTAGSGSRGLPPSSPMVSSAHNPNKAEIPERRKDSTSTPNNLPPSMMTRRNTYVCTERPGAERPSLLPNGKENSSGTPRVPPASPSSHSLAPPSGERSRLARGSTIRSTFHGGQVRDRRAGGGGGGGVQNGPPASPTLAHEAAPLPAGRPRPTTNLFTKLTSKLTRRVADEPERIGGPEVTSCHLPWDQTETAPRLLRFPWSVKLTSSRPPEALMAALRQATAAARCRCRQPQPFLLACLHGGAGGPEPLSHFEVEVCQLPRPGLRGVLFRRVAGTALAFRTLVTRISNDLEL
The assay can be described thus: Binding affinity to human MARK4 assessed as binding constant by fluorescence spectroscopy analysis.

For `CN1c2ccccc2Sc2ccc(C(=O)c3c(-c4ccccc4)nc4ccccn34)cc21`, the K was 0.79 10^5/M.
